Results on 5 compounds are retold here after PubChem BioAssay AID592 (National Center for Advancing Translational Sciences (NCATS), 2007).

This is one part of the list. Some tests of the compounds listed are not included; inactive here does not mean inactive elsewhere. Active and inactive are the calls of the source. No rule for the calls is given here.

The assay in a line: qHTS Assay for Spectroscopic Profiling in A647 Spectral Region. As to conditions: Compound fluorescence, A647 channel (570/671 nm), Tris buffer; stronger effect = higher value. The text has this:
NIH Molecular Libraries Screening Centers Network [MLSCN] NIH Chemical Genomics Center [NCGC] […] Occasionally, the artifactual effect may originate from the compounds own spectral or other biophysical properties which generally tend to track its assay concentration. Pre-screening/profiling the library with respect to the compounds spectral properties should help one exclude false positives early on. While the most informative fluorescent profiling data set is obtained by performing a full excitation and emission scan of each well by using a monochromator-based plate reader, such an approach is practical only on a very limited scale as scanning each well requires long time. An alternative approach, applied here, is to perform plate reader scans using selected excitation and emission wavelength pairs to generate a multidimensional relational database that correlates compound concentration and the respective relative fluorescence intensity at a given wavelength set. A standard curve of Alexa 647 (A647) present on each plate as six-point concentration series, was used to compute a normalized fluorescence response, termed dye-equivalent concentration, for each compound at each concentration.
NCGC Assay Protocol Summary: Buffer: 100 mM Tris buffer, pH 8.0 Dye standard plate: The wells in columns 1 through 4 of a Kalypsys polypropylene 1536-well compound plate were filled with standard solutions of fluorophore corresponding to the spectral region of interest. Solutions of A647 were placed in the following wells: AC1, AD1: 3 mM, AC2, AD2: 300 uM, AC3, AD3: 30 uM, AC4, AD4: zero (DMSO), AE1, AF1: 3 uM, AE2, AF2: 900 nM, AE3, AF3: 300 nM, AE4, AF4: zero (DMSO). Assay Steps: Six uL of buffer were dispensed to 1536-well Greiner black plates. Compounds and dye standards (23 nL) were transferred via Kalypsys PinTool. The plates were incubated for 15 min at room temperature, and then read on ViewLux (Perkin-Elmer) High-throughput CCD imager using 570 nm and 671 nm excitation and emission filter set. Keywords: NIH Roadmap, MLSCN, MLI, MLSMR, qHTS, NCGC, A647, A-647, Fluorescent Profiling.
(In general: qHTS replaces the single test concentration by a dilution series.)
As to `O=C(OC1CN2CCC1CC2)C(CO)(c1ccccc1)c1ccccc1` (stereo not given), the max dye-equivalent concentration is inactive: 68 nM.

For the compound `CN1CC[C@H](OC(=O)[C@](O)(c2ccccc2)C2CCCC2)C1`, the max dye-equivalent concentration was inactive: 37 nM.

Consider `CN1CCC[C@H](OC(=O)[C@](O)(c2ccccc2)C2CCCC2)C1`, for which the max dye-equivalent concentration was inactive: 36 nM.

For the compound `C=C(C)C#C[C@@](O)(C(=O)OC1CCN(C)CC1)c1ccccc1`, the max dye-equivalent concentration is inactive: 59 nM.

Regarding `CN(C)c1cccc(C(=O)NCC2(N(C)C)CCCCC2)c1`, the max dye-equivalent concentration is inactive: 2.5 nM.
